This is an account of results in ChEMBL document CHEMBL1123159, “Quantitative evaluation of the beta 2-adrenoceptor intrinsic activity of N-tert-butylphenylethanolamines” (J Med Chem, 1986).

Sequences of proteins named here, by UniProt entry; tags and fusion partners are left off.
UniProt Q28044, whole entry: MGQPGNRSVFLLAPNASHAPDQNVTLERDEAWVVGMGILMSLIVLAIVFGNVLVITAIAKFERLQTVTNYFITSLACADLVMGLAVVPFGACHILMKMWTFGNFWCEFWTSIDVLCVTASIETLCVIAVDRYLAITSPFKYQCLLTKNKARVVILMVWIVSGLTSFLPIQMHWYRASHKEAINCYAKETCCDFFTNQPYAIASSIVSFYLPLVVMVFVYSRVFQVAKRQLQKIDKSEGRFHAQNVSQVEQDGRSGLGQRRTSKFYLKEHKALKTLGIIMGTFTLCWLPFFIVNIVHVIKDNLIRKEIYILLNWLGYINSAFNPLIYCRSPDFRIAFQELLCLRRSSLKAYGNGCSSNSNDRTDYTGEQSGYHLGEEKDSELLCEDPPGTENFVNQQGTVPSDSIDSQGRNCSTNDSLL

Data set [1] has as its target Beta-2 adrenergic receptor (Bos taurus, UniProt Q28044). The experiment in a line: Apparent binding affinity constant to beta-2 adrenergic receptor determined using [3H]DHA. The following applies: read-out: KD app.
Data set [2] in a line: log(1/ISA) value of the compound.

For the molecule `CC(C)(C)NCC(O)c1cc(Cl)c(N)c(Cl)c1` (configuration not stated) [CLENBUTEROL], the Kd in data set [1] was 37 nM. For the same molecule, in data set [2], the “Log 1/ISA” value turned out to be 0.28.
